# Data from publication PMC12706508.
# Target: Opto-p53 p53CT localizer (CIBN-p53CT(98-393)-mNeonGreen-T7) (UniProt P04637)
substance,measurement,value
Opto-p53 p53NT actuator (miRFP703-p53NT(1-97)-hCRY2-NLS) (from UniProt P04637 1-97),"fold increase of the p53 transcription reporter (mScarlet-I-3xNLS fluorescence) in HCT116 reporter cells co-expressing both fragments, blue light 0-24 hours",4 fold
